We go through one compound from patent US12234230B2, “Substituted benzyl-triazole compounds for Cbl-b inhibition, and further uses thereof” (Nurix Therapeutics, Inc., priority 2019, dated 2025).

Experiment [1] relates to primary human total T-cells. As to the kind of experiment: Primary human total T-cell activation (IL-2 secretion, CD25 surface staining), Biological Example 12. Conditions: anti-CD3 stimulation alone, fold change over baseline, Table 12-1.
For experiment [2], the system named is primary human total T-cells. As to the kind of experiment: Primary human total T-cell activation (IL-2 secretion, CD25 surface staining), Biological Example 2. Conditions: anti-CD3 stimulation alone, fold change over baseline.
The test system of experiment [3] is primary human total T-cells. As to the kind of experiment: Primary human total T-cell activation (IL-2 secretion, CD25 surface staining), Biological Example 9. Conditions: anti-CD3 stimulation alone, fold change over baseline, Table 9-1.

Turning to `C[C@H]1CCCN(Cc2cc3c(c(C(F)(F)F)c2)CN(c2cccc([C@]4(c5nncn5C)C[C@@H](C)C4)c2)C3=O)C1` [Compound 23, 2-(3-((1s,3R)-3-methyl-1-(4-methyl-4H-1,2,4-triazol-3-yl)cyclobutyl)phenyl)-6-(((S)-3-methylpiperidin-1-yl)methyl)-4-(trifluoromethyl)isoindolin-1-one], the “IL-2 secretion CD3 1 μM” value is recorded as “A (A indicates >0.66 fold)” in experiment [1] (1 μM inhibitor), “B (B indicates 0.70-1.1 fold)” in experiment [2] (1 μM inhibitor) and “A (A indicates >0.66 fold)” in experiment [3] (1 μM inhibitor). Also, the “IL-2 secretion CD3 3 μM” value in experiment [1] (3 μM inhibitor) is given as “A (A indicates >0.66 fold)”; in experiment [2] (3 μM inhibitor) it was “A (A indicates >1.1 fold)”; in experiment [3] (3 μM inhibitor) it was “A (A indicates >0.66 fold)”. In addition, in experiment [2] (1 μM inhibitor), the “CD25 staining CD3 1 μM” value was “B (B indicates 1.5-2.5 fold)”. In experiment [2] (3 μM inhibitor), the “CD25 staining CD3 3 μM” value is on record as “A (A indicates >2.5 fold)”.
